Data as given in patent publication US20060121117A1, “Anti-angiogenic compositions and methods of use” (ANGIOTECH PHARMACEUTICALS, INC., priority 1993, published 2006).

Assay: Release from 50:50 ELVAX:poly-l-lactic acid microspheres
Type: physicochemical
Settings: 18 hours of tumbling at 37° C.
Description: Microspheres are then prepared in a dissolution machine (Six-spindle dissolution tester, VanderKanp, Van Kell Industries Inc., U.S.A.) in triplicate at 200 rpm, 42° C., for 3 hours. Microspheres so prepared are washed twice in water and sized on the microscope.

% of the total drug released from the microspheres (fluorescence assay): 60% | % of the total drug released from the microspheres (uv/vis assay): 55%
Substance: baccatin
